Laboratory results from patent publication US20250354115A1, “METHOD FOR PRODUCING STEM CELLS AND METHOD FOR PRODUCING GAMMA DELTA T CELLS” (I Peace, Inc., priority 2022, published 2025).

Test system: Human peripheral blood mononuclear cells
Assay: iPS cell establishment with IL-2 only versus IL-4, IL-9 and IL-18 in zoledronic acid-containing medium (Example 7)
Format: cell-based
Settings: interleukins added to zoledronic acid-containing medium; PCR
Method: Human peripheral blood mononuclear cells were added to the zoledronic acid-containing medium according to Example 2, and a medium containing approximately 1×10^6 mononuclear cells was placed into a 24-well plate (Day 1). No interleukin was added to the medium of the first group. To the medium of the second group, 1 μL of 20 μg/mL IL-2 was added daily. To the medium of the third group, 1 μL of 20 μg/mL IL-9 was added daily. To the medium of the fourth group, 1 μL of 20 μg/mL IL-18 was added daily. To the medium of the fifth group, 1 μL of 20 μg/mL IL-4 was added daily. To the medium of the sixth group, 1 μL each of 20 μg/mL IL-9 and 20 μg/mL IL-18 was added daily. To the medium of the seventh group, 1 μL each of 20μg/mL IL-4 and 20 μg/mL IL-18 was added daily. To the medium of the eighth group, 1 L each of 20 μg/mL IL-4, 20 μg/mL IL-9, and 20 μg/mL IL-18 was added daily. In addition, a zoledronic acid-free medium identical to the zoledronic acid-containing medium according to Example 2, except for the absence of zoledronic acid, was prepared, and 1 μL of 20 μg/mL IL-2 was added daily to the zoledronic acid-free medium of the ninth group of mononuclear cells.
On the third day, the culture medium containing the cells was collected from the plate, centrifuged, and the supernatant was removed. […]

IL-2: interleukin, the only interleukin added to the zoledronic acid-containing medium
iPS cell lines containing the recombined Vγ9 gene with the JP gene: 28%
iPS cell lines possessing a recombined Vγ9 gene with the JP gene: 7 out of 27
